Source: patent US20130245081A1, “Compositions and Methods for Treating Amyotrophic Lateral Sclerosis” (priority 2009, published 2013)

Key:
clinical = details: both, human, plasma, oral, fasted
patients with ALS = details: Part 2

Row | Compound | half-life (clinical; 50 mg, t1/2, single 50 mg) | half-life (clinical; 150 mg, t1/2, single 150 mg) | half-life (clinical; 300 mg, t1/2, single 300 mg) | effect of riluzole on slope of ALSFRS R total score or mortality (patients with ALS)
1 | CCCN[C@@H]1CCc2nc(N)sc2C1 [dexpramipexole, (6R)-2-amino-4,5,6,7-tetrahydro-6-(propylamino)benzothiazole] | 6.65 ± 1.07 h | 6.96 ± 0.56 h | 6.4 ± 1.73 h | 
2 | Nc1nc2ccc(OC(F)(F)F)cc2s1 [riluzole, reference compound] |  |  |  | no effect
